Results from article PMC4885109, “Rapid Discovery and Structure–Activity Relationships of Pyrazolopyrimidines That Potently Suppress Breast Cancer Cell Growth via SRC Kinase Inhibition with Exceptional Selectivity over ABL Kinase” (Journal of Medicinal Chemistry, 2016).

The chains behind the UniProt entries cited, without tags or fusion partners.
UniProt P05177, whole entry: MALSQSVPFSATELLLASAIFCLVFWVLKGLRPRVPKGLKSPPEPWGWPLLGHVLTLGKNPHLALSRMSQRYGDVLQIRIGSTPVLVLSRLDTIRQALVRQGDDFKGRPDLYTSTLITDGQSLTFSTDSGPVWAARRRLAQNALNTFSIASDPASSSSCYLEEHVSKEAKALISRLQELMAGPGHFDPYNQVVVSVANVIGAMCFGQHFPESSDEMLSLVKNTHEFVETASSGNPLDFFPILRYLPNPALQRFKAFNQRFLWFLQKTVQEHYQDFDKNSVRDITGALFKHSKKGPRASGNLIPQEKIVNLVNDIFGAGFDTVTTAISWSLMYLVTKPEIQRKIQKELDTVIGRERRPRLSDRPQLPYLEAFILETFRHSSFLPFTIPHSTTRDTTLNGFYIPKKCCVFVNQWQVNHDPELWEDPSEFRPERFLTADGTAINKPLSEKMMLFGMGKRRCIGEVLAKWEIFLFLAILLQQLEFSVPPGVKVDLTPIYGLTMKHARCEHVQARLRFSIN

Target: CYP1A2 (Homo sapiens, UniProt P05177)
Conditions: 10 μM

Compound: O=c1cc(-c2ccccc2)oc2c1ccc1ccccc12 [Naphthoflavone, reference compound]
- inhibition of CYP1A2: 99.82%
